Patent US9802904B2, “Inhibitors of the USP1/UAF1 deubiquitinase complex and uses thereof” (The United States of America, as represented by the …, priority 2012, dated 2017)

The chains behind the UniProt entries cited, without tags or fusion partners.
UniProt O94782, whole entry: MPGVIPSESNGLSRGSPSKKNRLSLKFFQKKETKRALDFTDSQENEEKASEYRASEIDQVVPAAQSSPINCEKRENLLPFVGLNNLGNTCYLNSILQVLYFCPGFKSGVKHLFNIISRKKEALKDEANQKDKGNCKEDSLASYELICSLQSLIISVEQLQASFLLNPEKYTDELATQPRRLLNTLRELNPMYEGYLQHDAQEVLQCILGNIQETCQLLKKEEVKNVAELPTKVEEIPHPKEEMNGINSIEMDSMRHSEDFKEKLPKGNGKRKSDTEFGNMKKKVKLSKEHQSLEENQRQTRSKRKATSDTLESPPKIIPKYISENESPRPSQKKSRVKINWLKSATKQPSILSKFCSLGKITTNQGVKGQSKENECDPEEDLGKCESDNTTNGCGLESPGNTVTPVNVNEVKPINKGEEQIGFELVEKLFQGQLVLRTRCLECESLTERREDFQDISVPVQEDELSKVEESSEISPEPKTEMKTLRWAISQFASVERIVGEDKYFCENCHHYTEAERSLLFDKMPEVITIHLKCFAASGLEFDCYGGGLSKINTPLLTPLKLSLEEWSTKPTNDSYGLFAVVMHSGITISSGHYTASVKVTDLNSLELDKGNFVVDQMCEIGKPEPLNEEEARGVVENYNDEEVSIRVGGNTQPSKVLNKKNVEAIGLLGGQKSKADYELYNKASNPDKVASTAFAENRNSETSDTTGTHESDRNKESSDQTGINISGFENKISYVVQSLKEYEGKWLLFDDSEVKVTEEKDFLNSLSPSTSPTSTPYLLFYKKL
UniProt Q8TAF3, whole entry partner: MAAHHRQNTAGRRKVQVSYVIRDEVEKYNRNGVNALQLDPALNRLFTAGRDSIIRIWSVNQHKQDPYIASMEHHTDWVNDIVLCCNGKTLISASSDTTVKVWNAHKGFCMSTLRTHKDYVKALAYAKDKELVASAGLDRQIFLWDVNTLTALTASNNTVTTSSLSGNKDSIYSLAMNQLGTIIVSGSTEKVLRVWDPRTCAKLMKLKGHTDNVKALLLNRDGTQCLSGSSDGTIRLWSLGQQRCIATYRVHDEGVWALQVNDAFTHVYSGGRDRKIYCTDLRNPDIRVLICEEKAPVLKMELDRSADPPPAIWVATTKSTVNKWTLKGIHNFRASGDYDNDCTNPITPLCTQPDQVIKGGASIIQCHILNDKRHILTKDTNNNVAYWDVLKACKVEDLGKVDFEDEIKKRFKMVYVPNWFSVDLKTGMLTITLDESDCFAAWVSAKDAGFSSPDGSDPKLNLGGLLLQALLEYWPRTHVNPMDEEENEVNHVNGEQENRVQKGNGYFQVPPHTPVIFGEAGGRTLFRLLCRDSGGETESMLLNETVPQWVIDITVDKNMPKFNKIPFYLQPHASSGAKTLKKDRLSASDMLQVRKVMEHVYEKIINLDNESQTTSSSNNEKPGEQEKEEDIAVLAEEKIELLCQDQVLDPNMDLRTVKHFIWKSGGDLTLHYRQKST

Each compound was assayed against USP1/UAF1 (Homo sapiens (Human), UniProt O94782) (assay: qHTS assay for USP1/UAF1 activity (fluorometric, ubiquitin-rhodamine110)). Details: USP1/UAF1 inhibition, Table 2.
Type: biochemical

First: CC(C)c1ccccc1-c1nc(NCc2ccc(-c3cccnc3)cc2)c2ccccc2n1
Second: Cc1ccccc1-c1nc(NCc2ccc(-c3cccnc3)cc2)c2ccccc2n1
The IC50 of the first is 3.2-fold lower: 150 nM for the first, 480 nM for the second.

CCc1ccccc1-c1nc(NCc2ccc(-c3cccnc3)cc2)c2ccccc2n1 and Clc1ccccc1-c1nc(NCc2ccc(-c3cccnc3)cc2)c2ccccc2n1 are within 1.5-fold of each other in IC50: 610 nM for the first, 860 nM for the second.

Compared with COc1ccccc1-c1nc(NCc2ccc(-c3cccnc3)cc2)c2ccccc2n1, Fc1ccccc1-c1nc(NCc2ccc(-c3cccnc3)cc2)c2ccccc2n1 is 5-fold higher in IC50: 680 nM for the first, 3400 nM for the second.

Going from c1cncc(-c2ccc(CNc3nc(C4CCCC4)nc4ccccc34)cc2)c1 to c1cncc(-c2ccc(CNc3nc(N4CCCC4)nc4ccccc34)cc2)c1, the IC50 rises from 17000 nM to 27000 nM (1.6-fold).

First: Brc1ccccc1-c1nc(NCc2ccc(-c3cccnc3)cc2)c2ccccc2n1
Second: O=[N+]([O-])c1ccccc1-c1nc(NCc2ccc(-c3cccnc3)cc2)c2ccccc2n1
The IC50 of the first is 4.5-fold lower: 960 nM for the first, 4300 nM for the second. The first is the more potent here.

Going from FC(F)(F)c1cccc(-c2nc(NCc3ccc(-c4cccnc4)cc3)c3ccccc3n2)c1 to CN(CC(F)(F)F)c1nc(NCc2ccc(-c3cccnc3)cc2)c2ccccc2n1, the IC50 falls from 27000 nM to 7600 nM (3.6-fold). The second is the more potent here.

For c1cncc(-c2ccc(CNc3nc(-n4ccnc4)nc4ccccc34)cc2)c1, the IC50 was 27000 nM.

Same assay, conditions: USP1/UAF1 inhibition, Table 3

In the case of Cc1cnc(-c2ccccc2C(C)C)nc1NCc1ccc(-c2cccnc2)cc1 [Compound 86], the IC50 is reported as 68 nM.
